Test results as given in US10675317B2, “Use of ginseng extract, ginsenoside and ginsenoside derivative in the preparation of medicine or health care product for treating cytomegalovirus infection disorders” (priority 2015, dated 2020).

Test system: HCMV infected mice
Experiment: Spleen and thymus gland indexes of HCMV infected mice
Format: in vivo, Kunming mice
Settings: for Spleen indexes / Thymus gland indexes: day 21
Protocol: The mice were injected with HCMV10^−3 (0.1 ml/mouse) through the caudal vein of mouse tails; 0.9% normal saline is injected to the normal control group, 0.1 ml/piece; and intragastric administration is started according to the determined dosage on the second day of infection, with 21 days of medication.
During the experiment. Animals were weighed and the thymus and spleen were weighed on the 21st day of administration, and their indices (thymus index, spleen index, weight of thymus and spleen organs per 10 g body weight (mg)) were measured.
Thymus glands and spleens are important immune organs, with the organ indexes reflecting the strength of immune functions of organisms to a certain degree. The thymus glands have the main functions of generating T-lymphocytes and secreting thymosin, and mainly take part in cellular immunity; and abundant lymphocytes and macrophages are contained in the spleens. The weight of the thymus glands and the spleens is related to functions thereof as well as the quantity of immune cells therein, and the height depends on the proliferation degree of the lymphocytes therein.

[1] = high-dosage group 0.3 mg/kg/d intragastric
[2] = low-dosage group 0.012 mg/kg/d intragastric
[3] = medium-dosage group 0.06 mg/kg/d intragastric

“20(R)-ginsenoside Rg3 8-N-butyrate [Ginsenoside rg3 derivatives]” was tested, and the “Spleen indexes and thymus gland indexes compared with the model group (in words)” value was “significantly different from those of the model group”, the Spleen indexes [1] was 0.062 ± 0.032 and the Thymus gland indexes [1] was 0.032 ± 0.017. The Spleen indexes [2] was 0.059 ± 0.036, the Thymus gland indexes [2] was 0.027 ± 0.006 and the Spleen indexes [3] was 0.061 ± 0.027. The Thymus gland indexes [3] was 0.029 ± 0.008.
